In the test the target is PI3-Kα (Mus musculus (Mouse), UniProt P42337). In words: PI3-Kα Biochemical Assay (fluorescence polarization kinase assay). On the procedure: Compounds of the present invention were evaluated for potency against PI3-Kα using an in vitro kinase assay. PI3-Kα activity is measured in vitro by determining the level of phosphorylation of the substrate PI(4,5)P2. The formation of product PI(3,4,5)P3 is monitored by binding to the Grip1 PH domain in a ligand displacement fluorescence polarization (FP) assay, in which the TAMRA-labeled PI(3,4,5)P3 complexed with Grip1 PH domain is displaced by PI(3,4,5)P3 formed in the PI3-Kα reaction resulting in a decrease in FP signal. Mouse PI3-Kα P110 and P85 subunits were co-expressed in insect cells and co-purified to homogeneity. PI(4,5)P2 were obtained from Cayman. TAMRA-labeled PI(3,4,5)P3 were from Echelon, Grip1 PH domain from Dundee and other reagents were from Sigma.
All assays were performed in a Corning solid black 96-well half area plate using LJL Analyst (Molecular Devices) at room temperature. The assay buffer contained 50 mM HEPES, pH 7.4, 150 mM NaCl, 5 mM DTT, and 0.05% CHAPS. Dry powder PI(4,5)P2 was dissolved in 50 mM TRIS, pH 8 to make 1 mM stock solution. The PI(4,5)P2 stock solution was then diluted in the assay buffer to 60 μM, and sonicated for 30 sec before use. To the assay plate, the following reagents were added in sequence: 10 μL of 60 μM PI(4,5)P2, 5 μL of 4 nM PI3-Kα, 2 μL of compound in 25% DMSO, 3 μL of mixture containing 200 μM ATP and 33 mM MgCl2. The final volume for the reaction was 20 μL. The reaction mixture was incubated at room temperature for 35 min. The reaction was then stopped by 20 μL of 20 mM EDTA. […] The FP signal was allowed to develop for 40 min before reading on a LJL analyst at excitation 535 nm and emission 580 nm.
The percentage of inhibition was calculated based on the following equation % inhibition=[1−(FPcompound−FPmax)/(FPmin−FPmax)]×100, where FPcompound is the FP reading at a given compound concentration, FPmin is the FP signal of the PI3-Kα reaction in the absence of a compound, and FPmax is the background FP signal in the absence of PI3-Kα and a compound. The IC50 was determined by fitting the FP signal vs. compound concentration to a sigmoidal dose response equation using GraphPad Prism curve fitting program.
(In general: Fluorescence polarisation rises when a labelled molecule tumbles more slowly, as on binding a larger partner.)

The chains behind the UniProt entries cited, without tags or fusion partners.
UniProt P42337, whole entry: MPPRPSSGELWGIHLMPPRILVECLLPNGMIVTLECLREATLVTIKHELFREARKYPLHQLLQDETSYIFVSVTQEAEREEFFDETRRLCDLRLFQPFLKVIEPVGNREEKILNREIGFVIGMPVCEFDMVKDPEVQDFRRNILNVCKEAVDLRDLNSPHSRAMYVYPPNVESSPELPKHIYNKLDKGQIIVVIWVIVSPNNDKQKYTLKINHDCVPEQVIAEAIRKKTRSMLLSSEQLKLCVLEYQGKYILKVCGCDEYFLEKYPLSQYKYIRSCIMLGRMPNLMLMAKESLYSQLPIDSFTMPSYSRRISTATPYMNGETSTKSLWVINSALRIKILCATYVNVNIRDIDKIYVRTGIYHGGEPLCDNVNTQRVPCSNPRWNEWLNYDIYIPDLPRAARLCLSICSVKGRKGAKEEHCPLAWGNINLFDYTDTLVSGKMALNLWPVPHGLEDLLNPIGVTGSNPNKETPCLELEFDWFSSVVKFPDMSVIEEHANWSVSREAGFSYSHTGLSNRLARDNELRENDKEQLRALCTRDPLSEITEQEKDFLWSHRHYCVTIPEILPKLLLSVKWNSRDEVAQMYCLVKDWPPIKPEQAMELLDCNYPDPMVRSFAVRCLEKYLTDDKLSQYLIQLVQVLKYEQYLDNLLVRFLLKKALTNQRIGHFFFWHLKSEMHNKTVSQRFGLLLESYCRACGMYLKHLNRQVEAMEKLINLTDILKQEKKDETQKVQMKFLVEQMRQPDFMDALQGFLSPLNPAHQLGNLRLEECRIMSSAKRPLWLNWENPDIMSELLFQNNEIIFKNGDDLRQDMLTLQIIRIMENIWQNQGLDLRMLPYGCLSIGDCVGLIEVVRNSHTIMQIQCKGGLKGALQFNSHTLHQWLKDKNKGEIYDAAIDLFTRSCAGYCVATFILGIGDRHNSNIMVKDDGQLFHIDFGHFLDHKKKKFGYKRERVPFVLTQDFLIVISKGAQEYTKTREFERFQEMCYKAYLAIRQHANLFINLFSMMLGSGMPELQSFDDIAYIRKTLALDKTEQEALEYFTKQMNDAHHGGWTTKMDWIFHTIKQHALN

A word on the IC50: it is the concentration needed to halve the response being measured. A higher IC50 goes with weaker potency. As to `COc1ccc(-c2cc3c(C)nc(N)nc3n(C3CCCC3)c2=O)cn1` [Compound 111, 2-amino-8-cyclopentyl-6-(6-methoxypyridin-3-yl)-4-methylpyrido[2,3-d]pyrimidin-7(8H)-one], 2.96 nM corresponded to half-maximal inhibition (IC50).
Regarding `CCNc1nc(C)c2cc(-c3ccc(OC)nc3)c(=O)n(C3CCCC3)c2n1` [Compound 139, 8-cyclopentyl-2-(ethylamino)-6-(6-methoxypyridin-3-yl)-4-methylpyrido[2,3-d]pyrimidin-7(8H)-one], the midpoint of inhibition, the IC50, lay at 5.03 nM.
With `CNc1nc(C)c2cc(-c3ccc(OC)nc3)c(=O)n(C3CCCC3)c2n1` [Compound 140], it took 1.03 nM to reach half-maximal inhibition (IC50).
The result for `COc1ccc(-c2cc3c(C)nc(N)nc3n(C3CCC3)c2=O)cn1` [Compound 206, 2-amino-8-cyclobutyl-6-(6-methoxypyridin-3-yl)-4-methylpyrido[2,3-d]pyrimidin-7(8H)-one] reads 8.2 nM.
As for `Cc1nc(N)nc2c1cc(-c1cn[nH]c1)c(=O)n2C(C)C` [Compound 208, 2-amino-8-isopropyl-4-methyl-6-(1H-pyrazol-4-yl)pyrido[2,3-d]pyrimidin-7(8H)-one], the IC50 was determined as 29.4 nM.
The result for `Cc1nc(N)nc2c1cc(-c1cnc3ccccc3c1)c(=O)n2[C@H]1CC[C@H](OCCO)CC1` [Compound 289, 2-amino-8-(trans-4-(2-hydroxyethoxy)cyclohexyl]-4-methyl-6-quinolin-3-ylpyrido[2,3-d]pyrimidin-7(8H)-one] reads 17.6 nM.
In the case of `Cc1nc(N)nc2c1cc(-c1ccn[nH]1)c(=O)n2[C@H]1CC[C@H](OCCO)CC1` [Compound 301, 2-amino-8-[trans-4-(2-hydroxyethoxy)cyclohexyl]-4-methyl-6-(1H-pyrazol-3-yl)pyrido[2,3-d]pyrimidin-7(8H)-one], inhibition was half-maximal at 14.6 nM (IC50).

These data come from patent publication US8633204B2 (Pfizer Inc., priority 2006, dated 2014).
